Values of other authors as cited in US8431715B2, “Thiazole compound (as PPARδ) ligand and pharmaceutical, cosmetic and health food comprised thereof” (Seoul National University Industry Foundation, priority 2007, dated 2013).

By UniProt entry, the sequences of proteins in these tests, tags left out. Where a name states a change or a piece, a line headed by the entry shows the natural chain unless it says otherwise.
UniProt Q03181, whole entry: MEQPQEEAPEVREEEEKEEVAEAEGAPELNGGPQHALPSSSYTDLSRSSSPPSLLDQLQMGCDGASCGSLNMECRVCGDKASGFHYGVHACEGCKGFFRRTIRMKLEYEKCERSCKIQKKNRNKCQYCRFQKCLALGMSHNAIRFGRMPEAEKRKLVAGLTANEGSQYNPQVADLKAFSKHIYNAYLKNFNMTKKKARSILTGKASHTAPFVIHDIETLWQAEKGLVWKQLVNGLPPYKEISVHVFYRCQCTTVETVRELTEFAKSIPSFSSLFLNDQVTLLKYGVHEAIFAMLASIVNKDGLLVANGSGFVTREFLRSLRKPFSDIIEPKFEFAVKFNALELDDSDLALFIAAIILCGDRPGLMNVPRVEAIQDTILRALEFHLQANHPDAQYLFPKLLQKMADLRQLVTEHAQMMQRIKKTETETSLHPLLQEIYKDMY

Target: hPPARδ (Homo sapiens, UniProt Q03181)
Details: literature; cited from earlier work

## CCCc1c(OCCCSc2ccc(CC(=O)O)cc2Cl)ccc2c(C(F)(F)F)noc12
  selectivity to other hPPAR subtypes: barely have selectivity
